# Yeast mating assay 1: variants of the scFv Ab-14

Antigen: PDVDLGDISGINAS, a 14-residue peptide of the SARS-CoV-2 spike HR2 region.

Ab-14 is the parent antibody, in scFv form: VH, then the linker GGGGSGGGGSGGGGS, then VL. The heavy chain is unchanged in all variants.
VH: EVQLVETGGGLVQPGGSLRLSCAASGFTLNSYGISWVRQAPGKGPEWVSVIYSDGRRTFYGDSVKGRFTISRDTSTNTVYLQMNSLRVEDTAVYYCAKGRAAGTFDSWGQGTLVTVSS
VL: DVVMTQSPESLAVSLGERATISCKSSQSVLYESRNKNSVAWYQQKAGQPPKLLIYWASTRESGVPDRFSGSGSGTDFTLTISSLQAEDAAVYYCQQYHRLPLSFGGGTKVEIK

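The starting antibody came from a phage panning campaign against this peptide. Library AAYL50 holds single substitutions and randomly drawn double and triple substitutions in the CDRs. The scFvs were displayed on barcoded MATa yeast, the peptide on MATalpha yeast. Pairs that bind mate more often; barcode pairs of the diploids are counted by sequencing. A regression on co-assayed BCL2-family reference pairs converts the normalised counts of each replicate to an apparent Kd. Mating was done three times.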

Positions count from residue 1 of the parent VL; E61I puts I in place of E.
Values are log10 of the apparent Kd in nM; lower means stronger binding.
Replicates are averaged; those with no signal do not enter the mean.
"n.d." marks a missing value. The strain was present, yet no cells mated with the target were sequenced in that replicate, which points to weak or no binding.
Three control strains display no target. For library AAYL50, 18% of the pairings with them gave a signal, with a median of 4.19 and one signal in twenty below 2.99, so weak values seen in few replicates may be background. Also given: how often the same scFv was detected with the empty control strains, with their mean in brackets.

changes,"replicates, log10 nM",mean log10 Kd (nM),empty controls
E61I/S103M,n.d. / n.d. / 5.01,5.01,3 of 9 (4.81)
V29L/K36T/P101C,3.76 / 2.99 / 4.12,3.62,2 of 9 (3.41)
V29E/Y97V/S103A,1.33 / 1.26 / 1.53,1.37,3 of 9 (3.94)
Q27N/R34S/A40K,n.d. / n.d. / n.d.,n.d.,2 of 9 (4.85)
S38D/L102M/S103P,n.d. / n.d. / n.d.,n.d.,0 of 9
A40V/H98K/P101K,n.d. / n.d. / 5.29,5.29,2 of 9 (2.95)
S28Y/T59A/Q96T,n.d. / n.d. / n.d.,n.d.,1 of 9 (3.25)
Y31L/N35M/Y97T,3.07 / n.d. / 5.02,4.05,5 of 9 (4.00)
N37W/L100H/L102S,4.69 / 3.43 / n.d.,4.06,3 of 9 (4.21)
S38P/V39M/E61Y,2.34 / 1.84 / 2.10,2.09,2 of 9 (3.12)
S25M/Q27W/Q95V,n.d. / n.d. / n.d.,n.d.,0 of 9
W56F/E61G/H98S,1.68 / 1.68 / 1.72,1.70,3 of 9 (3.97)
V29G/E32K/R34C,4.10 / 1.99 / n.d.,3.04,0 of 9
L30I/A40L/A57G,n.d. / n.d. / n.d.,n.d.,2 of 9 (4.78)
V29H/K36W/S62Y,0.96 / 1.20 / 0.86,1.01,3 of 9 (3.49)
K24S/Y31G/V39Y,n.d. / 3.85 / n.d.,3.85,5 of 9 (3.71)
S26Q/S103W,1.36 / 1.59 / 1.55,1.50,2 of 9 (5.39)
S25V/S28A/S38Q,0.14 / 0.46 / 0.28,0.30,2 of 9 (4.11)
S28I/R60K/Y97V,2.67 / 2.70 / n.d.,2.68,1 of 9 (5.37)
V39L/H98A/S103Q,1.20 / 1.45 / 1.56,1.40,1 of 9 (3.32)
R34P/E61S/P101M,n.d. / 5.43 / n.d.,5.43,5 of 9 (4.35)
H98P/L100F/S103G,n.d. / n.d. / n.d.,n.d.,0 of 9
Q27V/E61L,2.99 / 2.86 / 2.43,2.76,0 of 9
N35A/H98Q/L100S,0.99 / 1.00 / 0.63,0.88,0 of 9
K24Q/S58K/H98G,1.68 / 1.52 / 1.95,1.72,1 of 9 (4.76)
S38T/V39R/H98A,n.d. / n.d. / 4.85,4.85,4 of 9 (3.87)
S33V/S103K,n.d. / 3.88 / 3.42,3.65,0 of 9
E61D/L100R,n.d. / n.d. / n.d.,n.d.,0 of 9
T59L/R99W/L102W,2.66 / 3.58 / 2.64,2.96,4 of 9 (5.02)
S38K/S58E,n.d. / n.d. / n.d.,n.d.,0 of 9
V29I/N35P/N37P,n.d. / n.d. / n.d.,n.d.,0 of 9
N35P/V39Q/T59P,n.d. / 5.01 / n.d.,5.01,4 of 9 (4.53)
S25M/Q27N/E32F,1.11 / 1.06 / 1.44,1.20,1 of 9 (2.88)

The first 5 entries again:

{"changes": "E61I/S103M", "replicates, log10 nM": "n.d. / n.d. / 5.01", "mean log10 Kd (nM)": "5.01", "empty controls": "3 of 9 (4.81)"}
{"changes": "V29L/K36T/P101C", "replicates, log10 nM": "3.76 / 2.99 / 4.12", "mean log10 Kd (nM)": "3.62", "empty controls": "2 of 9 (3.41)"}
{"changes": "V29E/Y97V/S103A", "replicates, log10 nM": "1.33 / 1.26 / 1.53", "mean log10 Kd (nM)": "1.37", "empty controls": "3 of 9 (3.94)"}
{"changes": "Q27N/R34S/A40K", "replicates, log10 nM": "n.d. / n.d. / n.d.", "mean log10 Kd (nM)": "n.d.", "empty controls": "2 of 9 (4.85)"}
{"changes": "S38D/L102M/S103P", "replicates, log10 nM": "n.d. / n.d. / n.d.", "mean log10 Kd (nM)": "n.d.", "empty controls": "0 of 9"}

Source: Engelhart et al. 2022 (doi:10.1038/s41597-022-01779-4), MIT Lincoln Laboratory and A-Alpha Bio; data file from the FLAb repository.